We go through one substance from patent publication US20240208954A1, “OXADIAZOLE COMPOUND, PREPARATION METHOD THEREFOR, PHARMACEUTICAL COMPOSITION AND USE THEREOF” (SHANGHAI INSTITUTE OF MATERIA MEDICA, CHINESE ACADEMY OF …, priority 2020, published 2024).

Chains of the proteins cited; added tags and fusions are not shown.
UniProt P21453, whole entry: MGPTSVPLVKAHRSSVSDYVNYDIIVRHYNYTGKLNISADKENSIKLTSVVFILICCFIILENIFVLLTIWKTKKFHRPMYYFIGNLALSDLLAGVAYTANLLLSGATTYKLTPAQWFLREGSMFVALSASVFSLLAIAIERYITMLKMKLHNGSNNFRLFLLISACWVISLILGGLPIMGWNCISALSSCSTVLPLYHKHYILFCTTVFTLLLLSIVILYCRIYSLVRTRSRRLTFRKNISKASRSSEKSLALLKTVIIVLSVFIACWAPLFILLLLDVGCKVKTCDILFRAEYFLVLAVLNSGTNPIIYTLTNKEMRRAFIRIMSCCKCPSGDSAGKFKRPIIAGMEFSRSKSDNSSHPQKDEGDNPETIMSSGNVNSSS
UniProt Q99500, whole entry, species assumed: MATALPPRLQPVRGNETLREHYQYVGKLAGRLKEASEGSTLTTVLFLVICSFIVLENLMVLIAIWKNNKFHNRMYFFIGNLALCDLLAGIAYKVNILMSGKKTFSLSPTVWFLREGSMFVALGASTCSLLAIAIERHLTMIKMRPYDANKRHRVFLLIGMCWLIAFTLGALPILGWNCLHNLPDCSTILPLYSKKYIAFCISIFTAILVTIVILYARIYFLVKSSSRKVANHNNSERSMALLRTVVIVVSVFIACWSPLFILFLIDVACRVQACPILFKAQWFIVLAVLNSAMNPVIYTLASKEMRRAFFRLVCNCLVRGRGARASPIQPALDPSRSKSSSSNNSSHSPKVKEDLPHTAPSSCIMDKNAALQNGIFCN

For one experiment, the target named is T1, S1PR1 (Homo sapiens, UniProt P21453).
T1 construct: host or cells: CHO-K1 co-expressing Ga15
In words: Agonistic activity test on S1P receptors, FLIPR, CHO-K1/Ga15/EDG1 cells. It counts as cell-based. The following applies: FLIPR agonist mode. The procedure:
(§1) Instrument: FLIPR™ TETRA (Molecular Device)
Experimental materials: CHO-K1/Ga15/EDG1 cells constructed by GenScript autonomously.
(§2) Sample processing: Before the experiment, the working solution with the corresponding concentration was prepared by diluting with GPCR dilution buffer.
(§3) After 18-20 hours, the cell culture plat was taken out and added with dye working solution, and then the plate was placed in a 37° C./5% CO2 incubator for 1 hour, and finally equilibrated at room temperature for 15 minutes. Positive agonist working solution was added, and RFU values were detected and recorded. […] The positive agonist working fluid was added to the cell culture plate at the 21st second. […]
(§4) Data processing: Raw data were obtained via ScreenWorks (version 3.1) and saved as *FMD files on the Kingsray computer network system. Data were collected and analyzed using Excel and GraphPad Prism 6 software programs. For each well, the average fluorescence intensity value from 1 to 20 seconds was used as the baseline, and the maximum fluorescence intensity value from 21 to 120 seconds minus the minimum fluorescence intensity value from 21 to 120 seconds was the relative fluorescence intensity value (ARFU), from which the percentage activation or inhibition can be calculated based on the following equation. […]

The target in another experiment is S1PR3 (Homo sapiens, UniProt Q99500). The experiment can be described thus: Agonistic activity test on S1P receptors, FLIPR. It counts as cell-based. The following applies: FLIPR agonist mode. The procedure:
as §1, §2, §3, §4
The data was analyzed using GraphPad Prism 6 with a four-parameter equation to calculate the EC50 and IC50 values. […]

With FTY720-P [reference compound], the EC50 (commonly the concentration at which the effect is half-maximal) on S1PR1 turned out to be 0.0393 µM; on S1PR3 it was 4.52 µM.
